The test concerns the target DPP-IV (UniProt P27487). Put plainly: In-vitro DPP-IV assay (cleavage of pNA from Gly-Pro-pNA). The settings on record: tested form: trifluoroacetate; for % Inhibition: DPP-IV inhibition at 100 nM; for IC50: DPP-IV.

Protein sequences, listed by entry. Tags and fused reporters are not part of them.
UniProt P27487, whole entry: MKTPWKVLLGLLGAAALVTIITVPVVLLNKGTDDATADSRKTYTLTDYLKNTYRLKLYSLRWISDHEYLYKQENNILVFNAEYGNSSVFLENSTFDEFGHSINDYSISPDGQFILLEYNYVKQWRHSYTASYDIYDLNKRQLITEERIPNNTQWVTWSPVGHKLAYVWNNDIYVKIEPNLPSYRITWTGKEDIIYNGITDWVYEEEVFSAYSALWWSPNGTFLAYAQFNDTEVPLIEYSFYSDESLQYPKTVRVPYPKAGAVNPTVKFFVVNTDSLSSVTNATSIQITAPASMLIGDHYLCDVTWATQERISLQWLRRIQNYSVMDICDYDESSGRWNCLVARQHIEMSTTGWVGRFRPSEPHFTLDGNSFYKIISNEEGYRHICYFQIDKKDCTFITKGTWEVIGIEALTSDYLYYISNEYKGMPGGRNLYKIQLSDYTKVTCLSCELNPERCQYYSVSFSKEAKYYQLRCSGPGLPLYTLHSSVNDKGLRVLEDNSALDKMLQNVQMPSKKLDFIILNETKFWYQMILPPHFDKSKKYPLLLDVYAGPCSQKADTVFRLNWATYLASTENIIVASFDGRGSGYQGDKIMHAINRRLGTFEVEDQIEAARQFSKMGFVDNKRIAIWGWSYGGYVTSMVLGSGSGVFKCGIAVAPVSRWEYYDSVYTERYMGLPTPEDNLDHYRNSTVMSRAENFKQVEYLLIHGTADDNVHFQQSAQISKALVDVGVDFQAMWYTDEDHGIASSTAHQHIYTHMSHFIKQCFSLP

Each structure is given as a SMILES string.

In the case of `CCOC(=O)CN1C(=O)CN(C(=O)C[C@H](N)Cc2cc(F)c(F)cc2F)Cc2ccccc21`, the “% Inhibition” value is “Y (Y: 50-100% DPP-IV inhibition at 100 nM)” and the IC50 (usually the concentration that gives 50% inhibition) fell in the range of 1 to 100 nM.
Regarding `N[C@@H](CC(=O)N1CC(=O)N(CC(=O)N2CCC(F)(F)C2)c2ccccc2C1)Cc1cc(F)c(F)cc1F`, the “% Inhibition” value is on record as “Y (Y: 50-100% DPP-IV inhibition at 100 nM)” and the concentration for half-maximal inhibition (IC50) was 1 to 100 nM.
As to `Cc1nnc2n1-c1ccccc1CN(C(=O)C[C@H](N)Cc1cc(F)c(F)cc1F)C2`, the “% Inhibition” value is on record as “Y (Y: 50-100% DPP-IV inhibition at 100 nM)” and the IC50 lay within 1 to 100 nM.
Consider `N[C@@H](CC(=O)N1Cc2ccccc2-n2cnnc2C1)Cc1cc(F)c(F)cc1F`, for which the “% Inhibition” value is recorded as “Y (Y: 50-100% DPP-IV inhibition at 100 nM)” and the IC50 fell in the range of 1 to 100 nM.
For the compound `N[C@@H](CC(=O)N1Cc2ccccc2-n2cnc(C(=O)N3CCOCC3)c2C1)Cc1cc(F)c(F)cc1F`, the “% Inhibition” value is listed as “Y (Y: 50-100% DPP-IV inhibition at 100 nM)” and the IC50 lay within 1 to 100 nM.
With `N[C@@H](CC(=O)N1CC(=O)N(CC(F)(F)F)c2ccccc2C1)Cc1cc(F)c(F)cc1F`, the “% Inhibition” value is reported as “Y (Y: 50-100% DPP-IV inhibition at 100 nM)” and the concentration for half-maximal inhibition (IC50) lay in the range of 1 to 100 nM.
In the same order, the values of `CCN(CC)C(=O)c1ncn2c1CN(C(=O)C[C@H](N)Cc1cc(F)c(F)cc1F)Cc1ccccc1-2` are “Y (Y: 50-100% DPP-IV inhibition at 100 nM)” and 1 to 100 nM.

Values taken from US8455479B2, “Heterocyclic compounds” (Panacea Biotec Limited, priority 2008, dated 2013).
